Assay results published in patent publication US20230183354A1 (IMMIOS HOLDING B V, published 2023).

Amino acid sequences for entries named in this document (tags omitted). Residues count along the entry.
UniProt P38570, 19-1179 limits assumed, chain 1 of 2: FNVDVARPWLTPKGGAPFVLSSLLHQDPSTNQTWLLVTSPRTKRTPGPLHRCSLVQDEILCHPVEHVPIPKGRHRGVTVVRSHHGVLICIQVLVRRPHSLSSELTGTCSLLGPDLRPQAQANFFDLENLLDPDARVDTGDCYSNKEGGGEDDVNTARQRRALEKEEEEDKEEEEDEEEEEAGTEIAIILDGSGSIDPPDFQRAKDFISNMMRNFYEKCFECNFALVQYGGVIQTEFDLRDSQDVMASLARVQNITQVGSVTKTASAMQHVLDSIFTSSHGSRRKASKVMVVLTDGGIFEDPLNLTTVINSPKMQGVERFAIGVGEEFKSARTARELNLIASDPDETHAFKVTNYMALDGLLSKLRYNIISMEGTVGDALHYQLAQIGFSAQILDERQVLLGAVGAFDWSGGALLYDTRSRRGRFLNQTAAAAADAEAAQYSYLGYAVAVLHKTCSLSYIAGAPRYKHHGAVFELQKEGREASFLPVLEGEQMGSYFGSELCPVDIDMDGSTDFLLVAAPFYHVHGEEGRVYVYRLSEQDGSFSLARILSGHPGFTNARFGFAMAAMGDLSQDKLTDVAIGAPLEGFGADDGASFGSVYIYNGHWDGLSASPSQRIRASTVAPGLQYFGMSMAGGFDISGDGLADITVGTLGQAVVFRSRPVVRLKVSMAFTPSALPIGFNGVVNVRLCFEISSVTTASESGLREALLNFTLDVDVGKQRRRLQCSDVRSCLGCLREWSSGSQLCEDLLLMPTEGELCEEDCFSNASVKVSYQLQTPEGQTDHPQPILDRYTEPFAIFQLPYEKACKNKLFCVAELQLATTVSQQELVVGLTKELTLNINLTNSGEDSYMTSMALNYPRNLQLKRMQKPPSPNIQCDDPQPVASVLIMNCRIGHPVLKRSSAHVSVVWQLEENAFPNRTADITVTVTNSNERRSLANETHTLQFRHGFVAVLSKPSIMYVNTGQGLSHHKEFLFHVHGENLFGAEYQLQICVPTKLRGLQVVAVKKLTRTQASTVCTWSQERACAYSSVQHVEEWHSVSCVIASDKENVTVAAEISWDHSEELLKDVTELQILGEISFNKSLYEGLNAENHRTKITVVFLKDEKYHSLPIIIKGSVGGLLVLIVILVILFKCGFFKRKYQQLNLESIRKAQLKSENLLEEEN
UniProt P38570, 19-1124 limits assumed, chain 1 of 2: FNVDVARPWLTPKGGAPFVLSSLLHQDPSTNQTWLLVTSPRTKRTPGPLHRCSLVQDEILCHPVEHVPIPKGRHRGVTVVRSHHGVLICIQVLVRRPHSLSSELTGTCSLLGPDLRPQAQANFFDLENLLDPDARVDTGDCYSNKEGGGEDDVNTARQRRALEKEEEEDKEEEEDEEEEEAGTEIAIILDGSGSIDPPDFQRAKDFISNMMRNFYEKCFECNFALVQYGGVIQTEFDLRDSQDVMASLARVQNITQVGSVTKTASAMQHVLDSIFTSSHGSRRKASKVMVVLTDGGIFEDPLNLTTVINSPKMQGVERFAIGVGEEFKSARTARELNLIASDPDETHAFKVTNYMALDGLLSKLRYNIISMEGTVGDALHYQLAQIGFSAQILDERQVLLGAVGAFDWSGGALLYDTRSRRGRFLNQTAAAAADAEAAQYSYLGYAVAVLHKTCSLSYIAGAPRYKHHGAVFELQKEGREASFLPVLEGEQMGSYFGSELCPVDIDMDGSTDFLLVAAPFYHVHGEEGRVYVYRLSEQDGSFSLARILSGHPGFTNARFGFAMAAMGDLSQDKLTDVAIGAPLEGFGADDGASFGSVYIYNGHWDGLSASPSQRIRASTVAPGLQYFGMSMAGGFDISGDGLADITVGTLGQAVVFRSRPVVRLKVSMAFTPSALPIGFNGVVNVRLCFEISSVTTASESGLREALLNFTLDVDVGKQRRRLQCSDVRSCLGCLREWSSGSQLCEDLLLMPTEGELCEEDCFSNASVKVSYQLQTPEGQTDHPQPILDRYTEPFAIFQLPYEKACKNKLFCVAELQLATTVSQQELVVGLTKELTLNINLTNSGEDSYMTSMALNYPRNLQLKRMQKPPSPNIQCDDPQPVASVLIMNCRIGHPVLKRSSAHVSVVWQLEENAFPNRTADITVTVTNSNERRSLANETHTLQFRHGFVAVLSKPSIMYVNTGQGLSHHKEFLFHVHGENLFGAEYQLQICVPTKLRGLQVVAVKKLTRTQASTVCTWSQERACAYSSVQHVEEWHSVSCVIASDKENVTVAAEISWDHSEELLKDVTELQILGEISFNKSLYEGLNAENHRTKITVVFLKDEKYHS
human CD103 (integrin Alpha-E) / human integrin Beta-7 heterodimer on cells, UniProt P26010, 20-798 limits assumed, chain 2 of 2: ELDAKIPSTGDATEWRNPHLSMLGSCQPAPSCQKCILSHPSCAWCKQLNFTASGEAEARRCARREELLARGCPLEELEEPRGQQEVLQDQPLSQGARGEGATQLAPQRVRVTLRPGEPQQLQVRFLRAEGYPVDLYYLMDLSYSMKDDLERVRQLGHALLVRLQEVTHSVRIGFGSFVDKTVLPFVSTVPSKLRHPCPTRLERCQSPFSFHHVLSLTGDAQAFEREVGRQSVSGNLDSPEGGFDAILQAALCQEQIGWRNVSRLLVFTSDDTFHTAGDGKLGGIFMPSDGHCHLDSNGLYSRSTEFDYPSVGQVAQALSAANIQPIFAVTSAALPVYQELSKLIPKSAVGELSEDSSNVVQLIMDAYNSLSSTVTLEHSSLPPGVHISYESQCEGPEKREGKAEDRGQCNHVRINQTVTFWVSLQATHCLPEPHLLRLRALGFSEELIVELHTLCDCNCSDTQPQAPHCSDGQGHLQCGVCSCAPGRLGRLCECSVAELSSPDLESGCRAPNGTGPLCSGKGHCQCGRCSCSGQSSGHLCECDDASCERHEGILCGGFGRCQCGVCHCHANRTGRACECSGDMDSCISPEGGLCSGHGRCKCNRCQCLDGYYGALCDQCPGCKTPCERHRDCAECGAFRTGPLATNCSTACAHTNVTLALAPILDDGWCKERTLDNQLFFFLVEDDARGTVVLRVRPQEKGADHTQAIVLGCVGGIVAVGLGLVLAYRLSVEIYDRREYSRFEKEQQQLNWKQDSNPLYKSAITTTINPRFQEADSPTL
recombinant hCD103/hBeta7 Fc-protein (Acro-Biosystems), UniProt P26010, 20-723 limits assumed, chain 2 of 2: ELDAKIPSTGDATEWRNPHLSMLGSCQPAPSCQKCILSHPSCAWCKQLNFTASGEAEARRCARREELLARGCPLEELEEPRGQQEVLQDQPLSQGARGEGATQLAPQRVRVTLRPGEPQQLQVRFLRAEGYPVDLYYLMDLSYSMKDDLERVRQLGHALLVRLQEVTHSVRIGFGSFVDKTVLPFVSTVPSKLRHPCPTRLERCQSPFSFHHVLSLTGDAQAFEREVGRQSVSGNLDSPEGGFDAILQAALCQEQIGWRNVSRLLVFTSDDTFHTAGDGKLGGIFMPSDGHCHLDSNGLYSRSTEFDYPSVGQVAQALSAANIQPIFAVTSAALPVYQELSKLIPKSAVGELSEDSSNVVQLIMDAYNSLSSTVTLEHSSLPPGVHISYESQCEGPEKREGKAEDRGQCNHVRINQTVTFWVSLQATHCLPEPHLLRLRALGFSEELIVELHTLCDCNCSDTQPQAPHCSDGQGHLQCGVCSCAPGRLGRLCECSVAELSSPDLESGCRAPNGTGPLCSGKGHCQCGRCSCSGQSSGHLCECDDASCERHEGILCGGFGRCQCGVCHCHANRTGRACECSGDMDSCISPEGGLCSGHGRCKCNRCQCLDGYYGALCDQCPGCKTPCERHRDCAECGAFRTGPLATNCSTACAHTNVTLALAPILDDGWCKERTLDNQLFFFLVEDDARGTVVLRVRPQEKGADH

Columns and labels:
[1] = biological target: T1, human CD103 (integrin Alpha-E) / human integrin Beta-7 heterodimer on cells (human, UniProt P38570 19-1179; P26010 20-798); assay: flow cytometry, tumor digest OC433, non-labeled Fab with secondary anti-Fab reagent (APC); hFab control Q2 4,64, secondary antibody alone Q2 4,65
T1 construct: the assay field tells which cells; also called hCD103/hBeta7; CHO.K1-hCD103/hBeta7
Procedure: (§1) Additional aliquots were stained with relevant isotype controls or as fluorescence minus one controls (“FMO” controls are cells stained with all the fluorophores minus one fluorophore; the relevant isotype controls contain either a directly labeled unspecific isotype antibody or an unspecific isotype antibody combined with secondary detection reagent). Percentage binding of fluorescently labeled mAbs was determined using flow cytometry. Maximum binding was set at 100%. […] Data analysis was performed with FlowJo v10 (Tree Star) and surface receptor levels were expressed as mean fluorescent intensity (MFI).

[2] = biological target: T1, human CD103 (integrin Alpha-E) / human …; assay: flow cytometry, tumor digest OC433, AF647-conjugated Fab, direct read-out; Alexa647.mFab control Q3 1,29
Procedure: as §1

[3] = biological target: T1, human CD103 (integrin Alpha-E) / human …; assay: flow cytometry, tumor digest OC433, AF647-conjugated Fab, direct read-out; Alexa647.mFab control Q2 2,58
Procedure: as §1

[4] = biological target: T1, human CD103 (integrin Alpha-E) / human …; assay: flow cytometry, tumor digest OC433, non-labeled Fab with secondary anti-Fab reagent (APC); hFab control Q3 3,71, secondary antibody alone Q3 2,44
Procedure: as §1

[5] = biological target: T2, recombinant hCD103/hBeta7 Fc-protein (Acro-Biosystems) (human, UniProt P38570 19-1124; P26010 20-723, limits assumed); assay: ELISA on coated recombinant human CD103/beta7 Fc-protein, OD450-620, lower right panel titled rhCD103/beta7
T2 construct: Bought protein with no catalog number and no construct limits printed; also called recombinant human CD103/Beta7; recombinant hCD103/beta7; not shown: fusion part of the bought 'Fc-protein'
Procedure: Protein coated 96-well plates were blocked in protein-free blocking buffer (Pierce) for 1.5 hour at 37° C. Plates were washed and incubated for 1 hour at RT with mAb/Fab in 0.1% Tween-20 in PBS. Next, plates were washed with PBS-T and incubated for 1 hour at RT with goat-anti-mouse IgG-HRP conjugate (Southern Biotech) for mAbs, and goat-anti-human Fab-HRP conjugate (Jackson Immuno Research) for the Fab fragments in 0.1% Tween-20 in PBS. […] Reactions were stopped with 0.5 M H2SO4 and absorbances were read at 450 and 610 nm.

[6] = biological target: T1, human CD103 (integrin Alpha-E) / human …; assay: cell ELISA on CHO.K1-hCD103/beta7 cells, OD450-620, upper right panel
[7] = biological target: T1, human CD103 (integrin Alpha-E) / human …; assay: cell ELISA on CHO.K1-humanCD103/beta7 cells, abs 450-610
[8] = biological target: T1, human CD103 (integrin Alpha-E) / human …; assay: cell-based ELISA on CHO.K1-hCD103/hBeta7 cells, absorbance, lower left panel
Procedure: (§2) Wells were washed with PBS and incubated with Rabbit anti-Mouse/IgG-HRP (1:4000, Dako) or Fab specific Goat anti-Human/IgG-HRP (1:4000; Sigma Aldrich) for 1 h at 37° C. Next, wells were washed with PBS and TMB substrate (KPL) was added. The color reaction was stopped by adding 1M HCl solution and the absorbance was measured by a microplate reader (Thermo Scientific).

[9] = biological target: T1, human CD103 (integrin Alpha-E) / human …; assay: cell-based ELISA on CHO.K1-hCD103/hBeta7 cells, Df-conjugated Fab, absorbance, lower left panel
Procedure: as §2

Binder | % of cells in Q2 (CD8+ CD103+) [1] [%] | % of cells in Q3 (CD8- CD103+) [2] [%] | % of cells in Q2 (CD8+ CD103+) [3] [%] | % of cells in Q3 (CD8- CD103+) [4] [%] | EC50 (read off the curve) [5] [mg/L] | EC50 (read off the curve) [6] [mg/L] | EC50 (read off the curve) [7] [mg/L] | EC50 (read off the curve) [8] [mg/L] | EC50 (read off the curve) [9] [mg/L]
Fab.hCD103.05.C1 (Fab, V domains shown) VH: EVQLQQSGPELEKPGASAKISCKASGYSFTGYNMNWVKQSNGKSLEWIGNIDPYYGGTSYNQKFKGKATLTVDKSSSTAYMQLKSLTSEDSAVYYCARSFYGYDAGSPYNYAMDYWGQGTPVTVSP VL: DIVMTQSHKFMSTSVGDRVSITCKASQDVGTFVAWYQQKPGQSPKLLIYWASTRHTGVPDRFTGSGSGTDFTLTISNVQSEDLADYFCHQYSSYPYTFGGGTQLEIKR | 12.5 | 6.59 | 12 | 4.57 | ~0.05 | ~0.1 |  |  | 
Fab.hCD103.01.C1 (Fab, V domains shown) VH: EVQLQESGPSLVKPSQTLSLTCSVTGDSITSGYWNWIRKFPGNKLEYMGYITYSGSTYYNPSLKSRISITRDTSKNQYYLQLNSVTTEDTATYYCTRHYYGSDAMDYWGQGTSVTVSS VL: DIVMTQSHKFMSTSVGDRVSITCKASQDVSIAVAWYQQRPGQSPKLLIYSASYRYTGVPDRFTGSGSGTDFTFTISSVQAEDLAVYYCQQHYSTPWTFGGGTKLEIKR | 12.3 | 3.83 | 12.4 | 5.75 | ~0.006 | ~0.01 |  | ~0.09 | ~0.09

Results, then the binder that gave them:

% of cells in Q2 (CD8+ CD103+) [1] [%] | % of cells in Q3 (CD8- CD103+) [2] [%] | % of cells in Q2 (CD8+ CD103+) [3] [%] | % of cells in Q3 (CD8- CD103+) [4] [%] | EC50 (read off the curve) [5] [mg/L] | EC50 (read off the curve) [6] [mg/L] | EC50 (read off the curve) [7] [mg/L] | EC50 (read off the curve) [8] [mg/L] | EC50 (read off the curve) [9] [mg/L] | Binder
8.12 | 0.21 | 4.51 | 2.94 |  |  |  |  |  | Fab.hCD103.06.C1 (Fab, V domains shown) VH: QVQLQQPGSELVRPGASVKLSCKASGYTFTSYWMHWVKQRHGQGLEWIGNIYPGSGSTNYDEKFKSKGTLTVDTSSSTAYMHLSSLTSEDSAVYYCTRGVYDNPYYFDYWGQGTTLTVSS VL: DIQMTQSSSNLSVSLGGRVTITCKASDHINNWLAWYQQKPGNAPRVLISGATSLETGVPSRFSGSGSGKDYTLSITSLQTEDVATYYCQQYWSIPLTFGAGTKLELKR
 |  |  |  |  |  | ~0.01 |  |  | hCD103.05A (antibody, mouse IgG1, V domains shown, Also tested labelled with AF647, conjugated with Df and labelled with 89Zr; these are written under this molecule; also called clone 05A; hCD103.05 mAb) VH: EVQLQQSGPELEKPGASAKISCKASGYSFTGYNMNWVKQSNGKSLEWIGNIDPYYGGTSYNQKFKGKATLTVDKSSSTAYMQLKSLTSEDSAVYYCARSFYGYDAGSPYNYAMDYWGQGTPVTVSP VL: DIVMTQSHKFMSTSVGDRVSITCKASQDVGTFVAWYQQKPGQSPKLLIYWASTRHTGVPDRFTGSGSGTDFTLTISNVQSEDLADYFCHQYSSYPYTFGGGTQLEIK
